# OPERA 2.9 data: intrinsic clearance values

Intrinsic clearance (human, µL/min per 10^6 hepatocytes): higher is faster turnover, and 0 stands for none detected.
"n/a" marks a cell with nothing listed here.

compound,name,intrinsic clearance (µL/min/10^6 cells)
Cc1cc(C2(c3cc(C)c(O)cc3C)OS(=O)(=O)c3ccccc32)c(C)cc1O,P-xylenol blue,0
Cc1ccc(C(=O)c2cc(O)c(O)c([N+](=O)[O-])c2)cc1,Tolcapone,22
CCCC(C)C(=O)O (stereo unspecified), 2-Methylpentanoic acid ,10.2
O=C(N[C@@H](Cc1ccccc1)[C@@H](O)C(=O)N1C[C@@H](O)[C@@H](O)C1)c1cc2cc(Cl)ccc2[nH]1,Ingliforib,2.09
Cc1ccc(C)c(O)c1C,"2,3,6-trimethylphenol",106
Cc1oc(-c2ccccc2)nc1CCOc1cccc2c1ccn2CCC(=O)O,n/a,3.4
O=C1Nc2ccc(Cl)cc2[C@@](C#Cc2ccccn2)(C2CC2)N1,"L-738,372",0
CNC[C@H](O)CC12CCC(c3ccccc31)c1ccccc12,Levoprotiline,3.037
CCCc1nn(C)c2c(=O)[nH]c(-c3cc(S(=O)(=O)N4CCN(C)CC4)ccc3OCC)nc12,Sildenafil,12.46
CN1[C@@H]2CCC[C@H]1C[C@@H](NC(=O)c1nn(C)c3ccccc13)C2,Granisetron,7.009
O=C(Oc1ccccc1)c1ccc(O)cc1,Phenylparaben,865
O=C(OCc1ccccc1)c1ccc(O)cc1,Benzylparaben,633
CCSC(=O)N(CC(C)C)CC(C)C,Butylate,52.51
CC(=O)C[C@@H](c1ccc([N+](=O)[O-])cc1)c1c(O)c2ccccc2oc1=O,S-acenocoumarol,0
O.O.O=c1c(O)c(-c2ccc(O)cc2O)oc2cc(O)cc(O)c12,Morin hydrate,0
COC(=O)c1c(Cl)c(Cl)c(C(=O)OC)c(Cl)c1Cl,Chlorthal-dimethyl,38.62
CCOc1ccccc1C(N)=O,Ethoxybenzamide,1.3
Cc1c(C(=O)O)c(O)cc2c1C(=O)c1c(O)c([C@@H]3O[C@H](CO)[C@@H](O)[C@H](O)[C@H]3O)c(O)c(O)c1C2=O,Carminic acid,88.8
CC(=O)S[C@H](C(=O)N[C@H]1Cc2ccccc2[C@H]2CCC[C@@H](C(=O)O)N2C1=O)C(C)C,Ilepatril,5.55
CCCCOC(=O)[C@@H](C)Oc1ccc(Oc2ccc(C(F)(F)F)cn2)cc1,Fluazifop-p-butyl,306.6
CCC(C)(C)c1cc(O)c(C(C)(C)CC)cc1O,"2,5-bis(2-methylbutan-2-yl)benzene-1,4-diol",11.4
O=c1c(O)c(-c2ccc(O)c(O)c2)oc2cc(O)cc(O)c12,Quercetin,75.2
OCCN1CCN(CCCN2c3ccccc3Sc3ccc(C(F)(F)F)cc32)CC1,Fluphenazine,7.399
CC(=O)OC[C@H]1O[C@@](COC(C)=O)(O[C@H]2O[C@H](COC(C)=O)[C@@H](OC(C)=O)[C@H](OC(C)=O)[C@H]2OC(C)=O)[C@@H](OC(C)=O)[C@@H]1OC(C)=O,Sucrose octaacetate,194
COc1ccc2[nH]c(S(=O)Cc3ncc(C)c(OC)c3C)nc2c1 (stereo unspecified),Omeprazole,3.271
CCC(CC)C(=O)O, 2-Ethylbutyric acid ,9.62
CCCCCC(CCC)C(=O)O (stereo unspecified), 2-Propylheptanoic acid ,0.0143
CC(C)O,Isopropanol,0.2182
CN(C)c1ccc(/N=N/c2ccccc2C(=O)O)cc1,Methyl red,11.1
Cc1cc(=O)[nH]c(=S)[nH]1,n/a,0
C=CCc1ccc(OC)c(OC)c1,Methyleugenol,26.56
CC(C)(C)NC[C@H](O)COc1nsnc1N1CCOCC1,Timolol,4.176
CCCCCCCCCCCC(=O)OC,Methyl laurate,445.2
COc1ccc(C(=O)c2ccccc2)c(O)c1,2-hydroxy-4-methoxybenzophenone,15.7
CN(C)C(=O)Nc1ccc(Cl)c(Cl)c1,Diuron,12.15
c1ccc2ccccc2c1,Naphthalene,10.39
CCc1cc(Cc2cc(CC)cc(C(C)(C)C)c2O)c(O)c(C(C)(C)C)c1,"2,2'-methylenebis(ethyl-6-tert-butylphenol)",0
CN(C)C(=O)Nc1ccccc1,Fenuron,2.89
CCOc1cc2ccccc2oc1=O,Ethoxycoumarin,26
CCOC(=O)C1=C(C)NC(C)=C(C(=O)OC)C1c1cccc([N+](=O)[O-])c1 (stereo unspecified),Nitrendipine,12.07
CC[C@H](C)C(=O)O[C@H]1C[C@@H](C)C=C2C=C[C@H](C)[C@H](CC[C@@H]3C[C@@H](O)CC(=O)O3)[C@H]21,Lovastatin,21.9
C=CCC(CCC)C(=O)O (stereo unspecified), 2-Propyl-4-pentenoic acid ,0.38
CN(C)c1cccc(O)c1,3-dimethylaminophenol,0
c1ccc2cc3c(ccc4ccccc43)cc2c1,n/a,18.27
CCCCCc1ccc(N)cc1,4-pentylaniline,18.2
CN1CCN2c3ccccc3Cc3ccccc3C2C1 (stereo unspecified),Mianserin,5.841
COc1c(Cl)ccc(Cl)c1C(=O)O,Dicamba,0.65
CC(=O)O[C@]1(C(C)=O)CC[C@H]2[C@@H]3C=C(Cl)C4=CC(=O)[C@@H]5C[C@@H]5[C@]4(C)[C@H]3CC[C@@]21C,Cyproterone acetate,4.46
CCC(C)OC(=O)N1CCCCC1CCO (stereo unspecified),Icaridin,12.56
CC(Cc1ccc(O)c(O)c1)C(C)Cc1ccc(O)c(O)c1 (stereo unspecified),Nordihydroguaiaretic acid,270
CC#C[C@]1(O)CC[C@H]2[C@@H]3CCC4=CC(=O)CCC4=C3[C@@H](c3ccc(N(C)C)cc3)C[C@@]21C,Mifepristone,29.9
Nc1ccc(S(=O)(=O)Nc2nccs2)cc1,Sulfathiazole,0

Excerpt, the final 6 entries:

compound,name,intrinsic clearance (µL/min/10^6 cells)
COc1c(Cl)ccc(Cl)c1C(=O)O,Dicamba,0.65
CC(=O)O[C@]1(C(C)=O)CC[C@H]2[C@@H]3C=C(Cl)C4=CC(=O)[C@@H]5C[C@@H]5[C@]4(C)[C@H]3CC[C@@]21C,Cyproterone acetate,4.46
CCC(C)OC(=O)N1CCCCC1CCO (stereo unspecified),Icaridin,12.56
CC(Cc1ccc(O)c(O)c1)C(C)Cc1ccc(O)c(O)c1 (stereo unspecified),Nordihydroguaiaretic acid,270
CC#C[C@]1(O)CC[C@H]2[C@@H]3CCC4=CC(=O)CCC4=C3[C@@H](c3ccc(N(C)C)cc3)C[C@@]21C,Mifepristone,29.9
Nc1ccc(S(=O)(=O)Nc2nccs2)cc1,Sulfathiazole,0

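The numbers are reported measurements, compiled and curated for the OPERA QSAR suite. A listed value is a point estimate from one report or more. Conditions of the individual experiments are not part of the data. A value may pool stereoisomers or salt forms, and the file does not say which form was measured. Some upstream entries may be estimates or bounds without being marked so.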

Values as listed in the OPERA 2.9 repository of K. Mansouri.